We go through ten compounds from ChEMBL document CHEMBL1201862, “PubChem BioAssay data set” (2004).

Amino acid sequences for entries named in this document (tags omitted). A change or cut given only in a name is not applied to a line headed by its entry.
UniProt O15296: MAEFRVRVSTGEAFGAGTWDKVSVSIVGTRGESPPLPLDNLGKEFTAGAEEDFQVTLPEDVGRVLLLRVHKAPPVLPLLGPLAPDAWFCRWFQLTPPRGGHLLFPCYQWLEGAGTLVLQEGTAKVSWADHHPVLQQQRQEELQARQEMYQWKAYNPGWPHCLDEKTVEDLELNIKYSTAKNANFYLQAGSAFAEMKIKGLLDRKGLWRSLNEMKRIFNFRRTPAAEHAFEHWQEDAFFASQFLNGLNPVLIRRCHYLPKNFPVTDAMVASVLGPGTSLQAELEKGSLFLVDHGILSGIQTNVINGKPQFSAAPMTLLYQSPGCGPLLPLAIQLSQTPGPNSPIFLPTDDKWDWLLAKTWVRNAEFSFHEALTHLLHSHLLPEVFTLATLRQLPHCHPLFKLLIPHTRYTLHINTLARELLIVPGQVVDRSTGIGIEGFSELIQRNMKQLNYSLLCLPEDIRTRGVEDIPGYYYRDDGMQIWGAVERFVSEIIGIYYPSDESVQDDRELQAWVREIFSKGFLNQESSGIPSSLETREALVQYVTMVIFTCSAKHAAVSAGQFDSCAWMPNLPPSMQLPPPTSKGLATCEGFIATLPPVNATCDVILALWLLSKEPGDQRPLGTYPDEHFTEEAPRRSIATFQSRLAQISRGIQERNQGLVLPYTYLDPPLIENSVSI
UniProt P16050: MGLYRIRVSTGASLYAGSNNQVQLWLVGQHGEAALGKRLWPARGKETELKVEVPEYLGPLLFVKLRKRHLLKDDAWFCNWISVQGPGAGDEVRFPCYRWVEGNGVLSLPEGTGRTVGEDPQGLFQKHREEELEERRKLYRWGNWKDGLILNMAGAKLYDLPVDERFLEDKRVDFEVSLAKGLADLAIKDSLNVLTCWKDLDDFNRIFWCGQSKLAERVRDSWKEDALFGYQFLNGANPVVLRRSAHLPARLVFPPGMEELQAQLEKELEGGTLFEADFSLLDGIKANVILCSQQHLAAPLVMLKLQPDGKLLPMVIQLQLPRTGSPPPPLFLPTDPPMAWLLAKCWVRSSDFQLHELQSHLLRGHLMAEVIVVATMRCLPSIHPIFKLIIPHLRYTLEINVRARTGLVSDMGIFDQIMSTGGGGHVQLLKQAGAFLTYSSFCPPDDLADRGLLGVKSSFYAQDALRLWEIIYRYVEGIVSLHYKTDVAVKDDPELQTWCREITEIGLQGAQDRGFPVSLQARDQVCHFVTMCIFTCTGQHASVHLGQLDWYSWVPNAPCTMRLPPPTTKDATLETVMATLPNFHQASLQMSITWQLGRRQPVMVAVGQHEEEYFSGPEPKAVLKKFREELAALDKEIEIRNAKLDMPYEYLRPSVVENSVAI
UniProt P04637, whole entry, looked up: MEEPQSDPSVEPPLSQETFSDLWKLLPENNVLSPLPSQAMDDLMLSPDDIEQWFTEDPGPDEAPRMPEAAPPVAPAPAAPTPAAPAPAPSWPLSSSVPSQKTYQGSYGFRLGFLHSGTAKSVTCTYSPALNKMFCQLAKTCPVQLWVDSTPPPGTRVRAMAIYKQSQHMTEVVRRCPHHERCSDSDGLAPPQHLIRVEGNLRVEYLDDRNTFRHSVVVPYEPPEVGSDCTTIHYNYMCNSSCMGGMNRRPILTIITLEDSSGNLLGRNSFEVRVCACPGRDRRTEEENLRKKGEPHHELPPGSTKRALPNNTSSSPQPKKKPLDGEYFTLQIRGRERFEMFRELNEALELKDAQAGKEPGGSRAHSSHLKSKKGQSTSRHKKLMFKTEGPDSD
UniProt P15428: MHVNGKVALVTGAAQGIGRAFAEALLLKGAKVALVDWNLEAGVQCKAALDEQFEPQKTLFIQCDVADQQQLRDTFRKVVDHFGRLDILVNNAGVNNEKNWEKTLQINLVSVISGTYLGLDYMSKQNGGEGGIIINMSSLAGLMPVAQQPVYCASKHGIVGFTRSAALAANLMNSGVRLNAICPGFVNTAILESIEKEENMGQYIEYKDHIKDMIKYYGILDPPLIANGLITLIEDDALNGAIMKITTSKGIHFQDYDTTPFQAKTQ
UniProt P83916, whole entry, looked up: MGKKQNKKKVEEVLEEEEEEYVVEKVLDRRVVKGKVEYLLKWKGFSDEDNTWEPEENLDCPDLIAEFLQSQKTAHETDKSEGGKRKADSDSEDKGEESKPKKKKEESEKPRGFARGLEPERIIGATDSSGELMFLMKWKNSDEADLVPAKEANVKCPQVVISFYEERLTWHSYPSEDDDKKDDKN
UniProt Q9NUW8, whole entry, looked up: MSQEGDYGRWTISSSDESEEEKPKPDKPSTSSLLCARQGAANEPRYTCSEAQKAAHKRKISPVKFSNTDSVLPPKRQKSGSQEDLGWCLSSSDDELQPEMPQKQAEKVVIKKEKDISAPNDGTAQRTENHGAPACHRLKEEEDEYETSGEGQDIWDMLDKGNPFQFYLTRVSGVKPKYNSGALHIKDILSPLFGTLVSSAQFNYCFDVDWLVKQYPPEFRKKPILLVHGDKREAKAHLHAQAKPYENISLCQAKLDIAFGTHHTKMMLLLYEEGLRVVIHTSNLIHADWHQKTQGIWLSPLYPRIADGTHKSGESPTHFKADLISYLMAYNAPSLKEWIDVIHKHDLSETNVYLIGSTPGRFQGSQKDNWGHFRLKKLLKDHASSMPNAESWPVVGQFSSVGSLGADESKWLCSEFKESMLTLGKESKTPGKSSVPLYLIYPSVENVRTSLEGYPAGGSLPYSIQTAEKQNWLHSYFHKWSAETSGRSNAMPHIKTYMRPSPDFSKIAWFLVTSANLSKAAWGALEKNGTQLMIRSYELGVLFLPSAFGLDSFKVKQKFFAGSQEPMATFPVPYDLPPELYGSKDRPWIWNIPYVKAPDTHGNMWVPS
UniProt Q14974, whole entry, looked up: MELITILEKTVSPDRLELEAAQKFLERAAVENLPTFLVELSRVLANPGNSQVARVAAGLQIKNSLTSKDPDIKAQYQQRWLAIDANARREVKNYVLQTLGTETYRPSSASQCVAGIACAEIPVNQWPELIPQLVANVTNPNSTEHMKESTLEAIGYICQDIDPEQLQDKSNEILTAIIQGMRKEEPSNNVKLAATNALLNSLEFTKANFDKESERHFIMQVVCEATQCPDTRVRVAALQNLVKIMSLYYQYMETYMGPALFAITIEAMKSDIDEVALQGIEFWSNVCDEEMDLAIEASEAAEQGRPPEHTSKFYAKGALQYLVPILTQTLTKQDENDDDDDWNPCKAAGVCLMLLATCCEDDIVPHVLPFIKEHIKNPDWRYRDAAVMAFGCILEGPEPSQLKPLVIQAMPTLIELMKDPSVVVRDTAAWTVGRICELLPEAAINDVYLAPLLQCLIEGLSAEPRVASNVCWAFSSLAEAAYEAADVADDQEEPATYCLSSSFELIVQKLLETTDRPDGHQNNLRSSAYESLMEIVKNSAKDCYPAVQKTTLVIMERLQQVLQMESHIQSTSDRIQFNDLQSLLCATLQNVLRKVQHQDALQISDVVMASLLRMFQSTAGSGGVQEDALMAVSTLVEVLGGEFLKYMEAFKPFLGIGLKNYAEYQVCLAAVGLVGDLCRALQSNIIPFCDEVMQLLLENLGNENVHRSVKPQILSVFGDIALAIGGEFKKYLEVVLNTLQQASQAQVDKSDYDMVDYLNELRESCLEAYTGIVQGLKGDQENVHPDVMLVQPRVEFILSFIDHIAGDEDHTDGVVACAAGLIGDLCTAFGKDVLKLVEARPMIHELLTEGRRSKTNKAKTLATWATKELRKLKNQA
UniProt O95149, whole entry, looked up: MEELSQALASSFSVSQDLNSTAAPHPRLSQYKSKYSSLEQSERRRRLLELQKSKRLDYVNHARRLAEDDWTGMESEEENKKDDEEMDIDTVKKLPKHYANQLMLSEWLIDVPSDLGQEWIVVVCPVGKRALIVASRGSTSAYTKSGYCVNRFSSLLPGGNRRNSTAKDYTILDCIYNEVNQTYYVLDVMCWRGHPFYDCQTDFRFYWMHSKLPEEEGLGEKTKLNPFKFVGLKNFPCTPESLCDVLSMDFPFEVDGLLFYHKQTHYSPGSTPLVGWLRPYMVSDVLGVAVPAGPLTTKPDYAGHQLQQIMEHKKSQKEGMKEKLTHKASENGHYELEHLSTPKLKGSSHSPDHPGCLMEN
UniProt P43220, whole entry, looked up: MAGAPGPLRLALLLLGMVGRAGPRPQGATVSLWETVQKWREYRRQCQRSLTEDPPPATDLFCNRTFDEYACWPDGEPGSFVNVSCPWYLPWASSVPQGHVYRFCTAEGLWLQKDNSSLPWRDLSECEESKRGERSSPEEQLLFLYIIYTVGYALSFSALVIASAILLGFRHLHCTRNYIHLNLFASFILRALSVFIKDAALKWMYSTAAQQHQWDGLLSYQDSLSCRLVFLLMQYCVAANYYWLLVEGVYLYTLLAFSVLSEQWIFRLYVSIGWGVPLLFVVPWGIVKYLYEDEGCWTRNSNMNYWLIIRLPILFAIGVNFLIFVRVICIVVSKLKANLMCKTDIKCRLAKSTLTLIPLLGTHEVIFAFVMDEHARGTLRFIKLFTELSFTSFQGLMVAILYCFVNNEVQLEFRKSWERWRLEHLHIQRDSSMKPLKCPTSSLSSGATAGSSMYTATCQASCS
UniProt P14618, whole entry, looked up: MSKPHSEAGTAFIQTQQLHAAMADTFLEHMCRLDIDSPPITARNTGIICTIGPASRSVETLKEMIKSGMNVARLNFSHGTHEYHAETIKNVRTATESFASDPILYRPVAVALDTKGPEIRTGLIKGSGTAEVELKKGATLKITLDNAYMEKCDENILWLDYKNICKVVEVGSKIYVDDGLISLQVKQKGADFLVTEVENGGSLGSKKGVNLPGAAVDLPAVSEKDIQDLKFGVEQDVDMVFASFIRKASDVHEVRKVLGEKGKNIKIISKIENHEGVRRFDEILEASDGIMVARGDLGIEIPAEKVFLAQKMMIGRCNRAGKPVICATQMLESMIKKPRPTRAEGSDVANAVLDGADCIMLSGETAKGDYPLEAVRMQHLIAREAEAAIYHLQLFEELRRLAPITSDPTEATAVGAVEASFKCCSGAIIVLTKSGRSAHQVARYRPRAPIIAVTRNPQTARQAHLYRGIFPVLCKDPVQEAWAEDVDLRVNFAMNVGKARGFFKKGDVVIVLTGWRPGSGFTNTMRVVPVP

Assay [1] deals with Polyunsaturated fatty acid lipoxygenase ALOX15B (Homo sapiens) (UniProt O15296). The assay can be described thus: qHTS Assay for Inhibitors of 15-hLO-2 (15-human lipoxygenase 2). [Related pubchem assays (depositor defined):AID2312, AID2537, AID2702]. The class given is functional.
In assay [2] the target is 3-hydroxyacyl-CoA dehydrogenase type-2 (Homo sapiens) (UniProt Q99714). The assay can be described thus: qHTS Assay for Inhibitors of HSD17B4, hydroxysteroid (17-beta) dehydrogenase 4. The class given is functional.
A short description of assay [3]: qHTS Assay for Compounds that Induce Erasure of Genomic Imprints. The assay is classed as functional.
In assay [4] the target is Lysosomal alpha-glucosidase (Homo sapiens) (UniProt P10253). The assay can be described thus: qHTS Assay for Inhibitors and Activators of Human alpha-Glucosidase Cleavage of Glycogen. [Related pubchem assays: 1473, 1466 ]. The assay is classed as functional.
Assay [5] addresses T1, Nuclear receptor ROR-gamma (Mus musculus) (UniProt P51450).
T1 sequence (whole entry): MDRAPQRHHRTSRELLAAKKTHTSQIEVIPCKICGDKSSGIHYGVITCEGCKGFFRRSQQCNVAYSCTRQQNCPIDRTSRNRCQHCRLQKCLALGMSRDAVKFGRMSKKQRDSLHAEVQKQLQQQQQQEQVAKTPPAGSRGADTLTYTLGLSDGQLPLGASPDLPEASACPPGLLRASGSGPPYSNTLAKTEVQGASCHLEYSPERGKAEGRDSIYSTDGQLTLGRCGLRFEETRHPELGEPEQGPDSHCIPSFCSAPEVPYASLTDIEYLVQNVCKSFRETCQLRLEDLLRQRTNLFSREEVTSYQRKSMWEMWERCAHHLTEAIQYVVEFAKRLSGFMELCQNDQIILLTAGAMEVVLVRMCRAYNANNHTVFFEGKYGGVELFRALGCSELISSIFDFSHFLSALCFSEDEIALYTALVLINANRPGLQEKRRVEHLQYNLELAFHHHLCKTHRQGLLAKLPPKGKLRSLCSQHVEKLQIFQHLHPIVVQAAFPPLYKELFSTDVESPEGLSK
The assay can be described thus: qHTS for inhibitors of ROR gamma transcriptional activity. The class given is functional.

The target of assay [6] is T2, 4'-phosphopantetheinyl transferase ffp (Bacillus subtilis) (UniProt Q9F4F7).
T2 sequence (whole entry): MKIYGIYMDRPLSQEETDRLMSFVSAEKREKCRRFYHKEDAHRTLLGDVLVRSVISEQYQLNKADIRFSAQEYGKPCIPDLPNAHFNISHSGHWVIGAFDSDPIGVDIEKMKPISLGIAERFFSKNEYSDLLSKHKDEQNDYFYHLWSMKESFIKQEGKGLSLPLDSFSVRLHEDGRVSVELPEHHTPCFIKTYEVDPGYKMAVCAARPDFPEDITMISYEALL
The assay can be described thus: qHTS Assay for Inhibitors of Bacillus subtilis Sfp phosphopantetheinyl transferase (PPTase). The class given is functional.

The target in assay [7] is Polyunsaturated fatty acid lipoxygenase ALOX15 (Homo sapiens) (UniProt P16050). The assay can be described thus: qHTS Assay for Inhibitors of 15-hLO (15-human lipoxygenase). The class given is functional.
In assay [8] the target is Cellular tumor antigen p53 (Homo sapiens) (UniProt P04637). The assay can be described thus: qHTS assay for re-activators of p53 using a Luc reporter. [Related pubchem assays (depositor defined):AID504709]. The assay is classed as functional.
The target in assay [9] is T3, Histone-lysine N-methyltransferase EHMT2 (Homo sapiens) (UniProt Q96KQ7).
T3 sequence (whole entry): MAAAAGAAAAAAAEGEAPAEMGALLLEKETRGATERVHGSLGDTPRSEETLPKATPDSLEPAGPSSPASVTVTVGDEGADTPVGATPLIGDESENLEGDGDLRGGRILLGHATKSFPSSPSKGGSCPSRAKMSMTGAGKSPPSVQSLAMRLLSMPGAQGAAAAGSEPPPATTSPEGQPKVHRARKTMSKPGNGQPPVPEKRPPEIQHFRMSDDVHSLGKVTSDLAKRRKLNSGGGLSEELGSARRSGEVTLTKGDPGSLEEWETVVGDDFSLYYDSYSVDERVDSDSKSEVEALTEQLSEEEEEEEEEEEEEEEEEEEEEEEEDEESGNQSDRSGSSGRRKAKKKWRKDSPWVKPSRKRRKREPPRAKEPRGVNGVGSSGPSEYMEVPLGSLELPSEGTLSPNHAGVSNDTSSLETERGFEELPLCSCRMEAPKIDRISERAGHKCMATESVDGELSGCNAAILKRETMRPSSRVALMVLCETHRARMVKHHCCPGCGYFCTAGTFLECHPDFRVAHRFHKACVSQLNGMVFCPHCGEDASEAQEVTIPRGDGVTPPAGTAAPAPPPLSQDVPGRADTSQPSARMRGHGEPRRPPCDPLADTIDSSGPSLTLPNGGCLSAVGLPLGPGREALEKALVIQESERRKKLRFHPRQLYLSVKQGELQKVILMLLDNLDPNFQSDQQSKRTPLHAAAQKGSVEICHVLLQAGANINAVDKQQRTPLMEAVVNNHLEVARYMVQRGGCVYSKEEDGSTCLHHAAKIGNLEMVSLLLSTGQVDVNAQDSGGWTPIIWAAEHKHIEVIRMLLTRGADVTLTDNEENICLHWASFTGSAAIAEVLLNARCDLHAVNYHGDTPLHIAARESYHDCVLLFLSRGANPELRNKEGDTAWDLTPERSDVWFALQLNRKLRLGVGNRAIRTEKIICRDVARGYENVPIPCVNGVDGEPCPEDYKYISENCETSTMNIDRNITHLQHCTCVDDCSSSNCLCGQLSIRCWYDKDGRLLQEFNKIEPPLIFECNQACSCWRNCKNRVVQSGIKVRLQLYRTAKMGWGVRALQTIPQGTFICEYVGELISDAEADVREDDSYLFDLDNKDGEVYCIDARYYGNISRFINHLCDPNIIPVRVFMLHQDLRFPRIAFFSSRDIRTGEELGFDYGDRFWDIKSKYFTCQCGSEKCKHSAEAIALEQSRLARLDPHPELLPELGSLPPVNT
The assay can be described thus: qHTS Assay for Inhibitors of Histone Lysine Methyltransferase G9a. [Related pubchem assays (depositor defined):AID504404]. The class given is functional.

Assay [10] addresses 15-hydroxyprostaglandin dehydrogenase [NAD(+)] (Homo sapiens) (UniProt P15428).
Assay [11] deals with Chromobox protein homolog 1 (Homo sapiens) (UniProt P83916). The assay can be described thus: HTS for Inhibitors of HP1-beta Chromodomain Interactions with Methylated Histone Tails. [Related pubchem assays (depositor defined):AID488962]. The assay is classed as functional.
Assay [12] has as its target Tyrosyl-DNA phosphodiesterase 1 (Homo sapiens) (UniProt Q9NUW8). The assay can be described thus: qHTS for Inhibitors of human tyrosyl-DNA phosphodiesterase 1 (TDP1): qHTS in cells in presence of CPT. The assay is classed as functional.
The subject of another assay is microRNA 21. The assay can be described thus: qHTS Assay for Modulators of miRNAs and/or Activators of miR-21. The assay is classed as functional. The settings on record: Homo sapiens.
Assay [13] deals with T4, Thioredoxin reductase 1, cytoplasmic (Rattus norvegicus) (UniProt O89049).
T4 sequence (whole entry): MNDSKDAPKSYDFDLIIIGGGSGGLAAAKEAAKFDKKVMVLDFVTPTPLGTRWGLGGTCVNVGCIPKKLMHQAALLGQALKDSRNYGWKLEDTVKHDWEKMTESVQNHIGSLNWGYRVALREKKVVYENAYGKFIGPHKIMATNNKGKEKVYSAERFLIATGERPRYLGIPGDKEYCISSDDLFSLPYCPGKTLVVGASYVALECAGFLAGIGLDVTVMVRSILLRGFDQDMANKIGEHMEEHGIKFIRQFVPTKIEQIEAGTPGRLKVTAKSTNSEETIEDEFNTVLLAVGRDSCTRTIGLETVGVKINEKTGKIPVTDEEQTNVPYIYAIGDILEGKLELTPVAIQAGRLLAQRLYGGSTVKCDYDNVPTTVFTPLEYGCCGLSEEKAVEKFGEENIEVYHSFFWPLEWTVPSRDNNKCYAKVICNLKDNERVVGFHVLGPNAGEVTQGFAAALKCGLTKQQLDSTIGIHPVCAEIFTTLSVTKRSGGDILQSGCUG
The assay can be described thus: qHTS Assay for Inhibitors of Mammalian Selenoprotein Thioredoxin Reductase 1 (TrxR1): qHTS. [Related pubchem assays (depositor defined):AID488771]. The assay is classed as functional.

Assay [14] has as its target GTP-binding nuclear protein Ran/Importin subunit beta-1/Snurportin-1 (Homo sapiens) (UniProt P62826+Q14974+O95149). The assay can be described thus: qHTS Assay for Inhibitors of RanGTP induced Rango (Ran-regulated importin-beta cargo) - Importin beta complex dissociation. [Related pubchem assays (depositor defined):AID540262]. The class given is functional.
In assay [15] the target is T5, DNA polymerase iota (Homo sapiens) (UniProt Q9UNA4).
T5 sequence (whole entry): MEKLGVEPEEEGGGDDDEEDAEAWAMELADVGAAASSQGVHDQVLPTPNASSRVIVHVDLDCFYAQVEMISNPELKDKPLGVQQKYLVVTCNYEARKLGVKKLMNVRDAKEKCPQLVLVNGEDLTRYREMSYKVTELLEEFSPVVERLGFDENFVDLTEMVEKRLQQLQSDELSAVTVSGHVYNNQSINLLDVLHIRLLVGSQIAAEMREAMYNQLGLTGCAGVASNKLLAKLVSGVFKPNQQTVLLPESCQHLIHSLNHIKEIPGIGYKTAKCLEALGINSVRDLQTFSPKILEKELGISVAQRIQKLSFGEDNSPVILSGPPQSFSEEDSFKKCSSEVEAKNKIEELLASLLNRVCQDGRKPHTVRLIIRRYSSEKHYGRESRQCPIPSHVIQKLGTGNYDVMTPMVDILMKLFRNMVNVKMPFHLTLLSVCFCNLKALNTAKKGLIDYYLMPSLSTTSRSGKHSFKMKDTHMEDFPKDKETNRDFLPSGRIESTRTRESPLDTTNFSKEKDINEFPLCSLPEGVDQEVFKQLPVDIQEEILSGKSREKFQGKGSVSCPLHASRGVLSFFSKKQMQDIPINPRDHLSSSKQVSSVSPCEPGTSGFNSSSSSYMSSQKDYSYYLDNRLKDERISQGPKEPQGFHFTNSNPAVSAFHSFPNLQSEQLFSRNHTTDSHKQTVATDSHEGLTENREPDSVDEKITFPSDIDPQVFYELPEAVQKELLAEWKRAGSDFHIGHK
The assay can be described thus: qHTS for Inhibitors of Polymerase Iota. [Related pubchem assays (depositor defined):AID588623]. The assay is classed as functional.

Another assay concerns HepG2. The assay can be described thus: qHTS for Inhibitors of TGF-b: Cytotox Counterscreen. [Related pubchem assays (depositor defined):AID588855, AID588860]. The class given is functional. The settings on record: Homo sapiens.
In assay [16] the target is Glucagon-like peptide 1 receptor (Homo sapiens) (UniProt P43220). The assay can be described thus: qHTS of GLP-1 Receptor Inverse Agonists (Inhibition Mode). The class given is functional.
Assay [17] concerns the target Pyruvate kinase PKM (Homo sapiens) (UniProt P14618). The assay can be described thus: qHTS Assay for Inhibitors of Human Muscle isoform 2 Pyruvate Kinase. [Related pubchem assays: 1379 ]. The class given is functional.
For assay [18], the target named is Guanine nucleotide-binding protein G(s) subunit alpha isoforms short (Homo sapiens) (UniProt P63092). The assay can be described thus: qHTS for Agonist of gsp, the Etiologic Mutation Responsible for Fibrous Dysplasia/McCune-Albright Syndrome: qHTS. The assay is classed as functional.

The list shows a part of the results, in another mix than the full data. These assays gave more results; the selection is not random. The list shows a part of the results. Activity calls are given as the source filed them. Unless noted, no cut-off for these calls is given here.

For `Cc1nc2ccc3ccccc3c2o1`, the Potency was active: 12.6 µM in assay [1]; active: 20 µM in assay [2]; active: 24.9 µM in assay [4]; active: 17.8 µM in assay [5]; active: 56.2 µM in assay [6]; active: 12.6 µM in [7]. The figures for the Potency in assay [9] and in assay [10] were active: 11.2 µM and active: 31.6 µM, respectively. The Potency result in assay [3] and in assay [8] was “inactive” in each case.
With `Cc1cc(N(CCCl)CCCl)ccc1C=O`, the Potency result in assay [11] is “inactive”. The Potency in [12] was active: 25.9 µM.
For the compound `CCOC(=O)c1ccc(NC(=O)C(C)(CCl)SC)cc1` (stereo unspecified), the Potency result in the assay on microRNA 21 is “inactive”.
As to `O=C(O)c1cccc(Nc2c([N+](=O)[O-])cc([N+](=O)[O-])cc2[N+](=O)[O-])c1`, the Potency result in [11] is “inactive”. In assay [13], the Potency was active: 10 µM.
`O=[N+]([O-])c1ccc(-c2cc([N+](=O)[O-])c(O)c([N+](=O)[O-])c2)cc1`: in assay [14], the Potency entry is “inactive”.
Consider `Nc1ccc2c(ccc3cccnc32)n1`, for which the Potency entry (in assay [15]; in the assay on HepG2; in [16]) was “inactive” in each case.
For `O=P(Nc1nccs1)(c1ccccc1)c1ccccc1`, the Potency entry in assay [14] is “inactive”.
Take `O=Cc1ccc(N(CCCl)CCCl)cc1`: the Potency entry in assay [15] was “inactive”.
On to `CC(=O)Nc1ccc([As](=O)(O)O)c(O)c1`, for which the Potency entry in assay [17] was “inactive”.
As to `Cn1c(=O)[nH]cc(N(CCCl)CCCl)c1=O`, the Potency result in assay [11] and in [18] was “inactive” throughout. Also, the values for the Potency in [13] and in [12] were active: 35.5 µM and active: 0.461 µM, respectively.
